Data published in article PMC7253625, “A Telomerase-Derived Peptide Exerts an Anti-Hepatitis B Virus Effect via Mitochondrial DNA Stress-Dependent Type I Interferon Production” (Frontiers in Immunology, 2020).

What was measured:
HBV [1] = experiment: Anti-HBV effect in HepG2 cells transiently transfected with 1.2x genotype C2 HBV genome plasmid (HBsAg ELISA, extracellular virion DNA qPCR); assay type: cell-based, hepatitis B virus; settings: 10 μM, treatment for 2 days
Protocol: For the analysis of the anti-HBV effect of GV1001, HepG2, Huh-7, or HepG2-2.15 cells were treated with PBS, entecavir, lamivudine, or GV1001 and incubated for 24 or 48 h. The supernatants were collected, and HBsAg and HBeAg ELISAs were conducted using a commercial Bioelisa HBsAg color ELISA Kit (BIOKIT, Barcelona, Spain) and a HBeAg ELISA kit (AccuDiag^TM, […], INC., Woodland Hills, CA, United States), respectively, according to the manufacturer’s procedures. Cell pellets were harvested and subjected to RNA extraction for RT-qPCR to determine the viral amount.
For evaluating the HBV viral titers, HBV genomes from cell culture supernatants and pellets were purified using the QIAamp Blood DNA extraction kit (QIAGEN, Hilden, Germany) and quantitated by qPCR using a primer pair specific to the small S gene (SF: 5′-[…]-3′) and antisense primer SR (positions 309–328, 5′-[…]-3′). The HBV DNA plasma standard containing 1 × 10^6 HBV genomic DNA copies/ml (HBV DNA Quantiplex, Chiron) was used to standardize the viral titers. The following primer sets were used to investigate the mRNA expression levels with RT-qPCR: 18S-F: 5′-[…]-3′ and 18S-R: 5′-[…]-3′, HO-1-F: 5′-TTG […]-3′, and HO-1-R: 5′-TCAGCAG CTCCTGCAACTCC-3′, IFNb-F: 5′-[…] […]

HBV [2] = experiment: Anti-HBV effect in Huh-7 cells transiently transfected with 1.2x genotype C2 HBV genome plasmid (HBsAg ELISA, extracellular virion DNA qPCR); assay type: cell-based, hepatitis B virus; settings: transfected Huh-7 cells, 10 μM, treatment for 2 days
Protocol: (§1) For the analysis of the anti-HBV effect of GV1001, HepG2, Huh-7, or HepG2-2.15 cells were treated with PBS, entecavir, lamivudine, or GV1001 and incubated for 24 or 48 h. The supernatants were collected, and HBsAg and HBeAg ELISAs were conducted using a commercial Bioelisa HBsAg color ELISA Kit (BIOKIT, Barcelona, Spain) and a HBeAg ELISA kit (AccuDiag^TM, DIAGNOSTIC AUTOMATION, INC., Woodland Hills, CA, United States), respectively, according to the manufacturer’s procedures. Cell pellets were harvested and subjected to RNA extraction for RT-qPCR to determine the viral amount.
(§2) For evaluating the HBV viral titers, HBV genomes from cell culture supernatants and pellets were purified using the QIAamp Blood DNA extraction kit (QIAGEN, Hilden, Germany) and quantitated by qPCR using a primer pair specific to the small S gene (SF: 5′-TTGACAAGAATCCTCACAATACC-3′) and antisense primer SR (positions 309–328, 5′-GGAGGTTGGGGACTGCGAAT-3′). The HBV DNA plasma standard containing 1 × 10^6 HBV genomic DNA copies/ml (HBV DNA Quantiplex, Chiron) was used to standardize the viral titers. […]

HBV [3] = experiment: Anti-HBV effect in stable HepG2-2.15 cells (extracellular virion qPCR, HBeAg ELISA); assay type: cell-based, hepatitis B virus; settings: 48 h, dose-dependent
Protocol: as §1, §2

HepG2 cells = assay type: cell-based, human
Protocol: (§3) HepG2 and Huh-7 cells were seeded (1 × 10^4 cells) in 96-well microplates and incubated with increasing concentrations of GV1001 for 3 days. Cell viability was determined using the MTT assay kit (Promega, Fitchburg, WI, United States). For analysis of the cytotoxicity of GV1001 and entecavir, CytoTox 96 Non-Radioactive Cytotoxicity Assays (G1780, Promega, Fitchburg, WI, United States) of the collected supernatant were performed according to the manufacturer’s protocol.

Huh-7 cells = assay type: cell-based, human
Protocol: as §3

HepG2-2.15 cells = experiment: Lactate dehydrogenase cytotoxicity assay, HepG2-2.15; assay type: cell-based, human; settings: supernatant
Protocol: as §3

HBV pgRNA = HBV pgRNA assay (RT-qPCR); assay type: cell-based, hepatitis B virus; settings: HepG2 cells transfected with linearized 1.2x genotype C2 HBV plasmid; GV1001 10 μM, ETV 30 nM
Protocol: Total RNA from cell pellets was extracted using TRIzol reagent (Invitrogen, Carlsbad, CA, United States) according to the provided protocol. The RNA samples were incubated with RQ1 DNase (Promega, United Kingdom) for 60 min at 37°C, mixed with 1 μl of stop solution, incubated at 65°C for 10 min to inactivate the DNase, and stored at −80°C until use. For detection of viral pgRNA, 2 μg of RNA was reverse-transcribed and amplified by the Reverse Transcription System (Promega, United Kingdom). Next, 2 μl of each cDNA was quantified by RT-qPCR analysis, and the 18S rRNA gene was used to normalize the RNA samples.

HBV cccDNA = HBV cccDNA assay (RT-qPCR); assay type: cell-based, hepatitis B virus; settings: HepG2 cells transfected with linearized 1.2x genotype C2 HBV plasmid; GV1001 10 μM, ETV 30 nM
Protocol: HepG2 cells transiently transfected with a linearized 1.2x genotype C2 HBV plasmid were collected and incubated in lysis buffer A (10 mM Tris–HCl, pH 7.4, 1 mM EDTA, 50 mM NaCl, and 1% NP-40) for 10 min at 4°C. The lysates were centrifuged for 5 min at 14,000 rpm, and the nuclear pellet in lysis buffer B (10 mM Tris–HCL, 10 mM EDTA, 150 mM NaCl, 0.5% SDS) was sonicated at three to four pulses of 60% power and incubated overnight at 37°C after treatment with 0.5 mg/ml proteinase K. After the lysates were extracted with phenol–chloroform (1:1) and precipitated with ethanol, 1 μg DNA was treated with 10 U of PSAD (Plasmid safe DNase I, Epicenter, PA, United States) for 45 min at 37°C. The reaction was stopped by incubating for 30 min at 70°C. RT-qPCR was performed, and the 18S rRNA was used for normalization.

HBV nucleocapsid = HBV nucleocapsid formation, Western blot on native gels; assay type: cell-based, hepatitis B virus; settings: transfected HepG2 cells; GV1001 1 nM–10 μM; native gel Western blot
Protocol: (§4) The harvested cells were lysed using RIPA buffer (CST, #9806) containing protease inhibitor and phosphate inhibitor (Hoffmann-La Roche Inc.) and incubated for 20 min on ice. The lysed cells were centrifuged for 30 min at 13,000 rpm, and the lysates were collected for Western blotting. A Bradford assay was performed for protein quantification. Then, 5X loading buffer and PBS were added for protein quantification, and the samples were boiled for 5 min and chilled on ice. Protein samples were separated by electrophoresis, transferred to NC membranes, and blocked for 1 h with 5% skim milk or bovine serum albumin. The membranes were incubated overnight at 4°C with primary antibodies (1:1,000). On the next day, the membranes were washed with 0.1% Tween-20 in Tris–buffered saline and incubated in HRP secondary antibodies (1:2,000) for 2 h. After ECL solution was applied to the membrane, proteins were detected on an imager (LAS 2000).

HBV [4] = experiment: Anti-HBV effect in HBV transgenic mice (serum HBsAg ELISA, serum HBV DNA qPCR); assay type: in vivo
Protocol: Transgenic (TG) mice were generated by transferring the pHY92-1.1x-HBV-full genome plasmid (genotype A2) into C57B1/6N mice, and the TG mice used in this study constitutively express the HBV genome with the W4P mutation in the preS1 region ([19]). The age-matched TG mice were injected with GV1001 (50 μg/kg) and LMV (500 μg/kg) twice per week. Serum was collected from the orbital sinus of the mice at 4 and at 8 weeks. All animal experiments were approved by the Institutional Animal Care and Use Committee of the Seoul National University College of Medicine (SNU-170308).
(§5) For evaluating the HBV viral titers, HBV genomes from cell culture supernatants and pellets were purified using the QIAamp Blood DNA extraction kit (QIAGEN, Hilden, Germany) and quantitated by qPCR using a primer pair specific to the small S gene (SF: 5′-TTGACAAGAATCCTCACAATACC-3′) and antisense primer SR (positions 309–328, 5′-GGAGGTTGGGGACTGCGAAT-3′). The HBV DNA plasma standard containing 1 × 10^6 HBV genomic DNA copies/ml (HBV DNA Quantiplex, Chiron) was used to standardize the viral titers. The following primer sets were used to investigate the mRNA expression levels with RT-qPCR: 18S-F: 5′-[…]-3′ and 18S-R: 5′-CGATCCGAGGGCCTCACTA-3′, HO-1-F: 5′-TTG CCAGTGCCACCAAGTTC-3′, and HO-1-R: 5′-TCAGCAG CTCCTGCAACTCC-3′, IFNb-F: 5′-TTGTGCTTCTCCACTA CAGC-3′ and hIFNb-R: 5′-[…]-3′, mtDNA1-F: 5′[…]-3′ and mtDNA1-R: 5′-[…]-3′, mtDNA2-F: 5′-[…]-3′ and mtDNA2-R: 5′-AA AGTGCATACCGCC7AAAAG-3′, mtDNA3-F: 5′-TCCAACT CATGAGACCCACA-3′ and mtDNA3-R: 5′-TGAGGCT TGGATTAGCGTTT-3′).

type I IFN = experiment: Type I IFN bioassay (ISRE luciferase reporter cells); assay type: cell-based, human; settings: supernatant of treated cells added to ISRE-luciferase reporter cells for 6 h
Protocol: For the indirect measurement of IFN levels using luciferase reporter genes, hMH55-293-ISRE cells integrating IFN-sensitive response elements (ISREs) associated with the luciferase reporter gene at the 3′ end were established using 5 μg of puromycin (Sigma-Aldrich, St. Louis, MO, United States). After the supernatant was collected from the cells treated with each reagent for 24 or 48 h, it was added to the hMH55-293-ISRE cells for 6 h. After incubation, the cells were washed with PBS and lysed by Reporter Lysis Buffer (E1500, Promega, Fitchburg, WI, United States) for 30 min at RT. Then, the luciferase assay reagent (E1500, Promega, Fitchburg, WI, United States) was added, and the luminescence was measured using a TECAN m200 reader (TECAN, Switzerland). For the neutralization assay, the HepG2-2.15 cells were seeded into six-well plates for 12 h. On the next day, the cells were pre-incubated with anti-IFNAR2 and anti-GAPDH antibodies for 2 h at RT on the rotator. After the cells were washed with PBS, they were treated with PBS (0.5%) or GV1001 (5 or 10 μM) for 12 h.

cytosolic mtDNA = experiment: Cytosolic mtDNA level, RT-qPCR; assay type: cell-based, human; settings: HepG2-2.15 cells; GV1001 for 48 h; mtDNA1, mtDNA2, mtDNA3 regions
Excerpt: as §5

8-OHdG = 8-OHdG ELISA; assay type: cell-based, human; settings: genomic DNA of HepG2-2.15 cells; GV1001 5 or 10 μM for 12 h
Protocol: After the HepG2-2.15 cells were seeded into six-well plates for 12 h, they were treated with PBS (0.5%) or GV1001 (5 or 10 μM) for 12 h. From the pellets, genomic DNA was extracted using a QIAamp Blood DNA extraction kit (QIAGEN, Hilden, Germany). For the detection of 8-hydroxy-2′-deoxyguanosine (8-OHdG) activity, competitive ELISAs from an 8-OHdG analysis kit (OxiSelect Oxidative DNA Damage ELISA kit, Cell Biolabs, San Diego, CA, United States) was used according to the manufacturer’s protocol.

heme oxygenase-1 (HO-1) = experiment: HO-1 protein expression, Western blot; assay type: cell-based, human; settings: 1.2x-WT plasmid-transfected HepG2 cells
Protocol: as §4

Structure (SMILES): CC[C@H](C)[C@H](NC(=O)[C@H](Cc1ccccc1)NC(=O)[C@H](CCCNC(=N)N)NC(=O)[C@H](CC(C)C)NC(=O)[C@H](CCCNC(=N)N)NC(=O)[C@H](CO)NC(=O)[C@@H](NC(=O)[C@H](CC(C)C)NC(=O)[C@H](CC(C)C)NC(=O)[C@H](C)NC(=O)[C@@H]1CCCN1C(=O)[C@H](CCCNC(=N)N)NC(=O)[C@H](C)NC(=O)[C@@H](N)CCC(=O)O)[C@@H](C)O)C(=O)N1CCC[C@H]1C(=O)N[C@@H](CCCCN)C(=O)O [GV1001]
- HBsAg level vs PBS (HBV [1]; ELISA): decreased
- extracellular HBV virion level vs PBS (HBV [1]; qPCR): decreased
- HBsAg level vs PBS (HBV [2]; ELISA): decreased
- extracellular HBV virion level vs PBS (HBV [2]; qPCR): decreased
- HBeAg level (HBV [3]; ELISA, reduction not definite compared with virion): reduced
- extracellular HBV virion level (HBV [3]; qPCR): reduced
- cytotoxicity (LDH assay) (HepG2 cells): cytotoxicity was not observed
- cytotoxicity (MTS cell viability) (HepG2 cells): No cytotoxicity was observed
- cytotoxicity (MTS cell viability) (Huh-7 cells): No cytotoxicity was observed
- cytotoxicity (LDH assay) (HepG2-2.15 cells): cytotoxicity was not observed
- pgRNA transcript level vs PBS (HBV pgRNA): significantly reduced
- cccDNA level vs PBS (HBV cccDNA): significantly reduced
- virion nucleocapsid levels (HBV nucleocapsid): reduced the virion nucleocapsid levels in a dose-dependent manner
- serum HBsAg level vs PBS, 4 weeks (HBV [4]; 50 μg/kg intravenously twice per week, after 4 weeks): did not significantly reduce
- serum extracellular virion level vs PBS, 4 weeks (HBV [4]; 50 μg/kg intravenously twice per week, after 4 weeks, qPCR): did not significantly reduce
- serum virions vs PBS, 8 weeks (HBV [4]; 50 μg/kg intravenously twice per week, after 8 weeks, qPCR): significant reduction
- mean HBsAg reduction compared to PBS (HBV [4]; GV1001 50 μg/kg intravenously twice per week, serum ELISA): 20%
- secreted IFN-I level (luciferase luminescence) (type I IFN): significantly increased in a dose-dependent manner
- cytosolic mtDNA levels (cytosolic mtDNA): significantly enhanced
- 8-OHdG level (8-OHdG): significantly elevated in a dose-dependent manner
- HO-1 expression (heme oxygenase-1 (HO-1)): enhanced HO-1 expression in a dose-dependent manner
